Reference: BindingDB's records for PubMed 8394362 (National Institute of Neurological Disorders and Stroke, 1993)

Amino acid sequences for entries named in this document (tags omitted).
UniProt P32305, whole entry: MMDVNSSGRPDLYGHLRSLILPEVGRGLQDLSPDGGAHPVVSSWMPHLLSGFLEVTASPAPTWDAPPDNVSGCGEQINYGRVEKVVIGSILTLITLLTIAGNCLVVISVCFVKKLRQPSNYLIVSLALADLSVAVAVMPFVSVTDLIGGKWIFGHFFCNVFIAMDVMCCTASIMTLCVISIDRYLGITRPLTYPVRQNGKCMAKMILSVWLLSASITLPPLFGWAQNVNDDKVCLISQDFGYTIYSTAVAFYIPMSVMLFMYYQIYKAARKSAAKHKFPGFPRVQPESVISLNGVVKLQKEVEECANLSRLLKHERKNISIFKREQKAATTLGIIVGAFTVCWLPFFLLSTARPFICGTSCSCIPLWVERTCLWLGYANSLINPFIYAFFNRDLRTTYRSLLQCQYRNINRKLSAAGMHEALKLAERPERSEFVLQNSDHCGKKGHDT

Biological target: 5-hydroxytryptamine receptor 7 (Rattus norvegicus, UniProt P32305)

pKi: 6.00
Structure (SMILES): NCC(O)c1ccc(O)c(O)c1 (stereo not drawn) [Noradrenaline,(+)]

pKi: −log10 of the molar value.
